# Binding of CDR-mutated scFvs to a peptide of the spike HR2 region

Values reported by Engelhart et al. 2022, doi:10.1038/s41597-022-01779-4 (FLAb copy).

The target is the same throughout: PDVDLGDISGINAS, from the HR2 region of SARS-CoV-2 spike.

Ab-14 is the parent antibody, in scFv form: VH, then the linker GGGGSGGGGSGGGGS, then VL. The light chain is unchanged in all variants.
VH: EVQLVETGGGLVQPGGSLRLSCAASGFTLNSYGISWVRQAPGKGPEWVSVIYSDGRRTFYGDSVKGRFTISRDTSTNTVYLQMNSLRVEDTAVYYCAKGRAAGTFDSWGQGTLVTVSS
VL: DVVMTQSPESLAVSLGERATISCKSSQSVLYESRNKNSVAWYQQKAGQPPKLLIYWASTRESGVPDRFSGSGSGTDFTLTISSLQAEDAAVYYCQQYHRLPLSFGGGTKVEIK

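The library (AAYL49) carries one to three amino acid substitutions per variant, with no insertions or deletions. Affinity was read by AlphaSeq, a pooled yeast mating assay with surface-displayed partners. After mating in shaken culture at 30 °C for 16 h, diploids were selected and their barcode pairs sequenced. Each replicate has its own calibration line, from reference interactions of the BCL2 family. Each pool was mated in three replicate cultures.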

Positions count from residue 1 of the parent VH; N30M puts M in place of N. Scale: log10 of Kd in nM, estimated from mating counts; low values are strong binders. "ND" means that the variant was in the library but no mating with the target was seen in that replicate; the authors take this as a sign of poor binding, and no number exists. In this assay the parent's reference entry averaged 0.65; its copy inside this library read 4.11 (one replicate of three). Empty control strains, which show no peptide, gave a signal in 15% of pairings with library AAYL49; the median was 4.06 and 95% of these signals were weaker than 2.83. No background was subtracted. Also given: how often the same scFv was detected with the empty control strains, with their mean in brackets.

changes | log10 Kd, replicates | empty controls
N30M+G99R | 2.44 / 2.32 / 2.71 | 0 of 9
N30R+S107D | 3.75 / 3.38 / 3.43 | 0 of 9
F27R+F59M | 3.65 / 2.73 / 2.81 | 2 of 9 (4.62)
S35P+S53I+G103F | ND / ND / ND | 1 of 9 (3.69)
T28I+V64Y+R100V | 3.28 / 2.73 / 2.27 | 0 of 9
F27I+I34H+S53G | ND / 5.05 / ND | 4 of 9 (4.15)
T28D+F59W+D106R | ND / ND / ND | 2 of 9 (3.69)
S35K+V64M | ND / ND / ND | 0 of 9
G33K+S35Q+V64Y | 4.11 / ND / ND | 2 of 9 (4.68)
T28L+G61D | 0.96 / 1.22 / 1.16 | 2 of 9 (4.51)
F27I+D54M+T104D | ND / ND / ND | 3 of 9 (3.62)
G26S+L29F+A101I | ND / ND / ND | 0 of 9
R57T+K65T+F105H | 3.95 / ND / ND | 1 of 9 (3.84)
S31G+I34P+V50M | ND / ND / ND | 0 of 9
T28H+G55I+G99A | ND / ND / ND | 1 of 9 (3.09)
F27R+I34H+R56L | ND / 4.02 / ND | 2 of 9 (4.71)
Y32S+K65E+A101H | ND / 3.42 / 4.72 | 3 of 9 (3.87)
S35P+D62E+A101I | ND / ND / ND | 0 of 9
F59K+D62K+A102D | ND / 3.72 / ND | 3 of 9 (4.59)
R100W+A102P+G103R | 2.86 / ND / ND | 2 of 9 (3.98)
L29T+S63H+A101M | ND / ND / ND | 1 of 9 (2.20)
S53L+K65M+T104E | ND / ND / 5.87 | 1 of 9 (4.79)
F27P+D62P+S63Q | 1.38 / 1.61 / 1.64 | 1 of 9 (2.88)
G61Y+F105M+S107P | 3.99 / 3.55 / 2.96 | 2 of 9 (4.17)
Y32H+A101N+G103L | ND / ND / ND | 1 of 9 (3.42)
G26T+F27R+Y32I | 3.72 / 3.35 / ND | 4 of 9 (3.73)
N30T+I51N+S63P | ND / ND / 5.05 | 1 of 9 (2.95)
Y32C+I34G+V50F | 5.98 / ND / ND | 2 of 9 (4.22)
S31Y+D54L+D62C | ND / ND / ND | 0 of 9
L29W+T58G+F105E | ND / ND / ND | 0 of 9
T28N+Y52V+F59L | ND / ND / ND | 0 of 9
S35V+V64W+D106E | 5.98 / 3.76 / 4.91 | 4 of 9 (3.83)
Y32Q+G103T | ND / ND / 3.21 | 1 of 9 (4.99)

From the list, the first 3 with no signal in any replicate:

changes,"log10 Kd, replicates",empty controls
S35P+S53I+G103F,ND / ND / ND,1 of 9 (3.69)
T28D+F59W+D106R,ND / ND / ND,2 of 9 (3.69)
S35K+V64M,ND / ND / ND,0 of 9